{
  "source": "patent EP0820772A1",
  "about": "“IMMUNOMODULATING MEDICINAL AGENT” (Travkin, Oleg Viktorovich, priority 1995, dated 1996)",
  "conditions": "in vivo",
  "data": [
    {"substance": "ether of 10 - methylencarboxylat-9-acridone [The proposed drug]", "values": [
      {"measurement": "toxicity (therapeutic index)", "result": "100-500"}
    ]}
  ]
}
